These are literature values, as cited in paper PMC8502442 (Pharmacology Research & Perspectives, 2021).

For this data set the following is noted: rat, oral administration; cited from earlier work.

With S‐^14C‐ofloxacin, the “radioactivity recovered from bile” value was “approximately 30%”.
